Here are results for one substance from publication PMC11819963, “In Vitro CO-Releasing and Antioxidant Properties of Sulfonamide-Based CAI-CORMs in a H2O2-Stimulated Human Achilles Tendon-Derived Cell Model” (Molecules, 2025).

Chains of the proteins cited; added tags and fusions are not shown. Lines headed by an entry give the natural chain unless they say otherwise; changes in a name come on top.
UniProt P00915: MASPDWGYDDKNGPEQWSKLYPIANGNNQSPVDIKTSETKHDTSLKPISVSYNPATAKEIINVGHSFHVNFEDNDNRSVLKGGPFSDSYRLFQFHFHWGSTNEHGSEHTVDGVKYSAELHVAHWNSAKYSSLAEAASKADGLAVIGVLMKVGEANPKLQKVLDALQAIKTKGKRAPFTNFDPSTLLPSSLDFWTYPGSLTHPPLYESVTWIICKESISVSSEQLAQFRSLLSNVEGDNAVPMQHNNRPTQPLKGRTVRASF

One experiment addresses hCA II (Homo sapiens, UniProt P00918). Kind of experiment: stopped-flow CO2 hydrase assay, hCA II. The conditions noted are these: mean from three assays, errors ±5–10%. It is filed as biochemical. The method, then:
The CO2 concentrations ranged from 1.7 to 17 mM for the determination of the kinetic parameters and inhibition constants. […] The uncatalysed rates were determined in the same manner and subtracted from the total observed rates. […] The inhibition constants were obtained by non-linear least-squares methods using PRISM 3 and the Cheng–Prusoff equation and represent the mean from at least three different determinations.

In a further experiment the target is hCA I (Homo sapiens, UniProt P00915). The conditions noted are these: stopped-flow CO2 hydrase assay; cells marked a; cited from earlier work.

A word on the Ki: it is a measure of affinity in units of concentration, obtained from inhibition or displacement. Regarding “4-(Diprop-2′-ynylamino)benzenesulfonamide hexacarbonyldicobalt [1c]”, the Ki at hCA II is 165 nM; at hCA I, 876 nM.
